# Measured values reported in ChEMBL document CHEMBL5725429, “P2X7 modulators” (2017).
# Chains of the proteins cited; added tags and fusions are not shown. Lines headed by an entry give the natural chain unless they say otherwise; changes in a name come on top.
# UniProt Q99572: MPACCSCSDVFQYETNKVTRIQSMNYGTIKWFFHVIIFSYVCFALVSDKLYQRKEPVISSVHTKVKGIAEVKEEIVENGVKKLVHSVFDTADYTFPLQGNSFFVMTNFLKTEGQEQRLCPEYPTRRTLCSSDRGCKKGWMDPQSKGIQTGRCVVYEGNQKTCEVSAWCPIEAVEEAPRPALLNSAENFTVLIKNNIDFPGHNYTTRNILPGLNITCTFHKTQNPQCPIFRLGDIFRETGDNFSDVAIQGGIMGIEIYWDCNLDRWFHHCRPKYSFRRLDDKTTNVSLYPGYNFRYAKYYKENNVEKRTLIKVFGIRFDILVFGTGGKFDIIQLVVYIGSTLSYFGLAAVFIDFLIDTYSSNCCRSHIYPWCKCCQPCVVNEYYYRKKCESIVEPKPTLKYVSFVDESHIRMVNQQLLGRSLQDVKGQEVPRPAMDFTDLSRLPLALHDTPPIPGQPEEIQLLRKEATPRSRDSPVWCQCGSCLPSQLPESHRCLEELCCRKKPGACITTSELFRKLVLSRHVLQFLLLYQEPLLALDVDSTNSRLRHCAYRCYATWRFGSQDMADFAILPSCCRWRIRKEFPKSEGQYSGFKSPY
# Tests used:
# P2X purinoceptor 7 [1] = target: P2X purinoceptor 7 (Homo sapiens, UniProt Q99572); experiment: (§1) Ca2+ Flux Assay: 1321N1 cells expressing the recombinant human or rat P2X7 channel was cultured in HyQ DME/(HyClone/Dulbecco's Modified Eagle Medium) high glucose supplemented with 10% Fetal Bovine Serum (FBS) and appropriate selection marker. Cells were seeded at a density of 25000 cells/well (96-well clear bottom black walled plates) in 100 μl volume/well. On the day of the experiment, cell plates were washed with assay buffer, containing (in mM): 130 NaCl, 2 KCl, 1 CaCl2, 1 MgCl2, 10 HEPES, 5 glucose; pH 7.40 and 300 mOs. After the wash, cells were loaded with the Calcium-4 dye (Molecular Device) and incubated in the dark for 60 minutes. Test compounds were prepared at 250× the test concentration in neat DMSO. Intermediate 96-well compound plates were prepared by transferring 1.2 μL of the compound into 300 μL of assay buffer. A further 3× dilution occurred when transferring 50 μL/well of the compound plate to 100 μL/well in the cell plate. Cells were incubated with test compounds and dye for 30 minutes. Calcium dye fluorescence was monitored in FLIPR as the cells were challenged by adding 50 μL/well of BzATP (final concentration is 250 μM BzATP (human and rat)).; assay type: cell-based
# P2X purinoceptor 7 [2] = target: T1, P2X purinoceptor 7 (Rattus norvegicus, UniProt Q64663); experiment: as §1; assay type: cell-based
# T1 sequence (Q64663 whole entry): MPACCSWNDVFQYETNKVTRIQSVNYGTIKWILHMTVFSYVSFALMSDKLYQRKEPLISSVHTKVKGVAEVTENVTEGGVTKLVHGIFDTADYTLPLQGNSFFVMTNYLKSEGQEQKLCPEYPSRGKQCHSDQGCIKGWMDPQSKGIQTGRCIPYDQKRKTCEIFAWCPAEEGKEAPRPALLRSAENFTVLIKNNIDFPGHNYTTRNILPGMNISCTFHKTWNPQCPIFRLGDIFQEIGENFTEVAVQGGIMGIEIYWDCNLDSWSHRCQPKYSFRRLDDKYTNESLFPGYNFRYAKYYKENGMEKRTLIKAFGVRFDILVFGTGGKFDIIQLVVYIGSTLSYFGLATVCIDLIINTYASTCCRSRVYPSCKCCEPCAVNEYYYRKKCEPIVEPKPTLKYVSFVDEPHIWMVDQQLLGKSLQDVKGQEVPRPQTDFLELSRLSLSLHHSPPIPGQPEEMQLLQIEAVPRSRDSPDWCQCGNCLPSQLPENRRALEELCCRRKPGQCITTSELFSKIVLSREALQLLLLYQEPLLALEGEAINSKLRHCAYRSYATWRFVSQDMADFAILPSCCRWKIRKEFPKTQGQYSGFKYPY
SMILES,Ki (P2X purinoceptor 7 [1]),Ki (P2X purinoceptor 7 [2])
"O=C(c1cccc(C(F)(F)F)c1Cl)N1[C@@H]2CCC[C@H]1c1nnc(-c3ccc(F)cc3)n1C2 (single isomer, unassigned)",13 nM,13 nM
"Cc1cccc(-c2nnc3n2C[C@H]2CCC[C@@H]3N2C(=O)c2cccc(C(F)(F)F)c2Cl)n1 (single isomer, unassigned)",5 nM,–
